According to ChEMBL document CHEMBL1139577, “Discovery of 3-OH-3-methylpipecolic hydroxamates: potent orally active inhibitors of aggrecanase and MMP-13” (Bioorg Med Chem Lett, 2005):

These compounds were tested against T1, Interstitial collagenase (Homo sapiens, UniProt P03956) (assay: Inhibitory concentration against MMP-1).
T1 sequence (P03956 whole entry): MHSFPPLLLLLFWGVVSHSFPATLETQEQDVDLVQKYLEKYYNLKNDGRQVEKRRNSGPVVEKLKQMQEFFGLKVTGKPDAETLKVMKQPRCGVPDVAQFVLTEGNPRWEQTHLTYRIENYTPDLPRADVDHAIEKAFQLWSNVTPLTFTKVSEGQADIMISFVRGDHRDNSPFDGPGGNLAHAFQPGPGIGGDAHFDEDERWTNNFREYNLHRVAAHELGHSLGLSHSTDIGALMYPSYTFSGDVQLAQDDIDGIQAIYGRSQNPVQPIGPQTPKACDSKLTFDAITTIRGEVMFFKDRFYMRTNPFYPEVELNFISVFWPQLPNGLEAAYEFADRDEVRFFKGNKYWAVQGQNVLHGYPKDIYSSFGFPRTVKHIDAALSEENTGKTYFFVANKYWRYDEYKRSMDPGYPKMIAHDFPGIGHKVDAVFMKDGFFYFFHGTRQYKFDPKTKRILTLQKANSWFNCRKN
For `C[C@@]1(O)CCCN(S(=O)(=O)c2ccc(OCc3ccccc3Cl)cc2)[C@H]1C(=O)NO`, the IC50 was 0.27 µM.
Compound `Cc1ccc(F)cc1COc1ccc(S(=O)(=O)N2CCC[C@@](C)(O)[C@@H]2C(=O)NO)cc1` has an IC50 of 0.6 µM.
Compound `Cc1cc(F)ccc1COc1ccc(S(=O)(=O)N2CCC[C@@](C)(O)[C@@H]2C(=O)NO)cc1` has an IC50 of 0.22 µM.
